# Values of other authors in patent US10960008B2, “Methods for treating PTEN deficient epithelial cancers using a combination of anti-PI3KBETA and anti-immune checkpoint agents” (Dana-Farber Cancer Institute, Inc., priority 2016, dated 2021).
# Amino acid sequences for entries named in this document (tags omitted). A change or cut given only in a name is not applied to a line headed by its entry.
# UniProt O00329: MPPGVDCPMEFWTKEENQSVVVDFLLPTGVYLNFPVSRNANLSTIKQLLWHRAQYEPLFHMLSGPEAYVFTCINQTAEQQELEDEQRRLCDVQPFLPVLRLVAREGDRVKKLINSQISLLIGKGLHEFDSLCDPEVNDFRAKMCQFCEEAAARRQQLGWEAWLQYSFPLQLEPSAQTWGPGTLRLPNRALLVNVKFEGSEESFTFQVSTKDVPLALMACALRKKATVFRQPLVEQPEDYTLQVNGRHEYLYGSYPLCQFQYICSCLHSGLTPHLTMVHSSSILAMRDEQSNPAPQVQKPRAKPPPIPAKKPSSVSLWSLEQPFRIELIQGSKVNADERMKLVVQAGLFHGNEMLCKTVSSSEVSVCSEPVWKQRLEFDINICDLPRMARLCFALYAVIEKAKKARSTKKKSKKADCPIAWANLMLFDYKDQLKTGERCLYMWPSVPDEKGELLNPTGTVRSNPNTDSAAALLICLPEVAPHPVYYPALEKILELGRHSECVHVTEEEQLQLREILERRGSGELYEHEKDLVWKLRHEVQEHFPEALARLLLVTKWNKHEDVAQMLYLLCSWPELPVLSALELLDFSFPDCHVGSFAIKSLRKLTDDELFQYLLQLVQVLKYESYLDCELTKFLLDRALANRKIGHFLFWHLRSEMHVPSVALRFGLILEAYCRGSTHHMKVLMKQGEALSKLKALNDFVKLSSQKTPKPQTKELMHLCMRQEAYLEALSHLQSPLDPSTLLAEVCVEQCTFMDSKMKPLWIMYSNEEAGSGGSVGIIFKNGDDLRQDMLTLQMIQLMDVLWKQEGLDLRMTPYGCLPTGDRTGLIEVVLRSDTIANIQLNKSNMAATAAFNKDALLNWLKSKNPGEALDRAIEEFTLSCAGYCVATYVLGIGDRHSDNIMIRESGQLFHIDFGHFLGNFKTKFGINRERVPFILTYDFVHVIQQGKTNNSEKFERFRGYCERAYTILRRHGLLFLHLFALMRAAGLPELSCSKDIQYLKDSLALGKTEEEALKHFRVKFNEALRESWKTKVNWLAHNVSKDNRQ
# Biological target: PI3K delta (Homo sapiens, UniProt O00329)
# Settings: read-out: IC50 PI3K delta; adapted from selleckchem.com; cited from earlier work
smiles,measurement,value
Cc1nc(-c2cn3c(n2)-c2ccc(-c4cnn(C(C)(C)C(N)=O)c4)cc2OCC3)n(C(C)C)n1,pIC50,9.92

# pIC50: −log10 of the molar value.
